We go through 18 molecules from patent US7507717B2 (Xenome Ltd., priority 2002, dated 2009).

The chains behind the UniProt entries cited, without tags or fusion partners.
UniProt P23975, whole entry: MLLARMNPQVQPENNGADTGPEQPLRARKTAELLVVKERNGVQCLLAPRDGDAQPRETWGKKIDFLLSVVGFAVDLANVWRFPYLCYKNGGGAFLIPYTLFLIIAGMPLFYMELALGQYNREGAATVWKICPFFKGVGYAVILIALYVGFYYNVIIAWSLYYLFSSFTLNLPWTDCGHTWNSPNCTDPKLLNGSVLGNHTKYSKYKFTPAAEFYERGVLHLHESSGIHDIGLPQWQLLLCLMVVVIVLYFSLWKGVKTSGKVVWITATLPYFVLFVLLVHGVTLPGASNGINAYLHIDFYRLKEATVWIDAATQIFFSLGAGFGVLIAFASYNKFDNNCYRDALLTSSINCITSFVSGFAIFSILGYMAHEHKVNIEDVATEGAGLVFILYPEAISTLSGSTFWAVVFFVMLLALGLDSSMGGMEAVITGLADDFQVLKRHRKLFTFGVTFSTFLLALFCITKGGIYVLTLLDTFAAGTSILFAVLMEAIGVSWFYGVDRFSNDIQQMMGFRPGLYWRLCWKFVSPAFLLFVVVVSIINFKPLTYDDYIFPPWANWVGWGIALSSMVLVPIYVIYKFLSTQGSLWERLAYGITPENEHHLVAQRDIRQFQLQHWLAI

The structures appear in SMILES notation.

In the assay the target is T1, human noradrenaline transporter (hNET) (Homo sapiens, UniProt P23975).
T1 construct: expressed in transfected cells; host or cells: COS-7 cells (ATCC), transient transfection with metafectene
Put plainly: biochemical. Type of assay: binding. Particulars: Av IC50 Displacement of 3H-nisoxetine from hNET.

In general, IC50 refers to the concentration needed to halve the response being measured. Low values mean greater potency in that assay, high ones weaker potency in that assay. With `CC(C)C[C@@H]1NC(=O)[C@H](CCCCN)NC(=O)[C@H](Cc2ccc(O)cc2)NC(=O)[C@@H](CO)NC(=O)[C@@H]2CSSC[C@H](NC1=O)C(=O)N[C@@H](Cc1c[nH]cn1)C(=O)N1CCC[C@H]1C(=O)N[C@H](C(N)=O)CSSC[C@H](NC(=O)[C@@H](NC(=O)CNC(=O)[C@@H](N)CC(N)=O)C(C)C)C(=O)N2` [compound 188], the 50% inhibitory concentration (IC50) was 95.5 µM.

In the case of `CC(=O)N[C@@H](Cc1c[nH]c2ccccc12)C(=O)N[C@@H](CCCCN)CC(=O)NCC(=O)N[C@H](C(=O)N[C@H]1CSSC[C@@H](C(N)=O)NC(=O)[C@@H]2C[C@@H](O)CN2C(=O)[C@H](Cc2c[nH]cn2)NC(=O)[C@@H]2CSSC[C@H](NC1=O)C(=O)NCC(=O)N[C@@H](Cc1ccc(O)cc1)C(=O)N[C@@H](CCCCN)C(=O)N[C@@H](CC(C)C)C(=O)N2)C(C)C` [compound 109], the IC50 was 0.933 µM.

In turn, `COc1ccc(C[C@@H]2NC(=O)CNC(=O)[C@@H]3CSSC[C@H](NC(=O)[C@H](CC(C)C)NC(=O)[C@H](CCCCN)NC2=O)C(=O)N[C@@H](CCCNC(=N)N)C(=O)N[C@@H](C)C(=O)N[C@H](C(N)=O)CSSC[C@H](NC(=O)[C@H](Cc2ccccc2)NC(=O)CNC(=O)CNC(=O)[C@@H](N)Cc2ccccc2)C(=O)N3)cc1` [compound 83] had a half-inhibitory concentration (IC50) of 0.302 µM.

`CC(C)C[C@@H]1NC(=O)[C@H](CCCCN)NC(=O)[C@H](Cc2ccc(O)cc2)NC(=O)CNC(=O)[C@@H]2CSSC[C@H](NC1=O)C(=O)N[C@@H](Cc1c[nH]cn1)C(=O)N1C[C@H](O)C[C@H]1C(=O)N[C@H](C(N)=O)CSSC[C@H](NC(=O)[C@@H](NC(=O)[C@H](CC(=O)O)NC(=O)[C@@H]1CCC(=O)N1)C(C)C)C(=O)N2` [compound 154] showed a half-maximal inhibitory concentration (IC50) of 3.98 µM.

`COc1ccc(C[C@@H]2NC(=O)CNC(=O)[C@@H]3CSSC[C@H](NC(=O)[C@H](CC(C)C)NC(=O)[C@H](CCCCN)NC2=O)C(=O)N[C@@H](CCCNC(=N)N)C(=O)N2C[C@H](O)C[C@H]2C(=O)N[C@H](C(N)=O)CSSC[C@H](NC(=O)[C@H](CC(C)C)NC(=O)CNC(=O)[C@@H](N)Cc2c[nH]c4ccccc24)C(=O)N3)cc1` [compound 35] had a half-inhibitory concentration (IC50) of 0.0955 µM.

The molecule `COc1ccc(C[C@@H]2NC(=O)CNC(=O)[C@@H]3CSSC[C@H](NC(=O)[C@H](CC(C)C)NC(=O)[C@H](CCCCN)NC2=O)C(=O)N2CCC[C@H]2C(=O)N[C@H](C(N)=O)CSSC[C@H](NC(=O)[C@@H](NC(=O)CNC(=O)[C@H](CC(N)=O)NC(=O)[C@@H](N)Cc2ccc(O)cc2)C(C)C)C(=O)N3)cc1` [compound 94] gave an IC50 of 0.427 µM.

Molecule `COc1ccc(C[C@@H]2NC(=O)CNC(=O)[C@@H]3CSSC[C@H](NC(=O)[C@H](CC(C)C)NC(=O)[C@H](CCCCN)NC2=O)C(=O)N[C@@H](CCCNC(=N)N)C(=O)N2C[C@H](O)C[C@H]2C(=O)N[C@H](C(=O)N[C@@H](Cc2ccc(O)cc2)C(N)=O)CSSC[C@H](NC(=O)[C@H](CC(C)C)NC(=O)CNC(=O)[C@@H](N)Cc2c[nH]c4ccccc24)C(=O)N3)cc1` [compound 44] had a half-inhibitory concentration (IC50) of 0.129 µM.

In turn, `CC(C)C[C@@H]1NC(=O)[C@H](CCCCN)NC(=O)[C@H](Cc2ccc(O)cc2)NC(=O)CNC(=O)[C@@H]2CSSC[C@H](NC1=O)C(=O)N[C@@H](CCCNC(=N)N)C(=O)N1C[C@H](O)C[C@H]1C(=O)N[C@H](C(N)=O)CSSC[C@H](NC(=O)[C@@H](NC(=O)CNC(=O)[C@H](CC(N)=O)NC(=O)[C@@H](N)Cc1c[nH]c3ccccc13)C(C)C)C(=O)N2` [compound 33] gave a 50% inhibitory concentration (IC50) of 0.0871 µM.

As for `COc1ccc(C[C@@H]2NC(=O)[C@H](Cc3c[nH]cn3)NC(=O)[C@@H]3CSSC[C@H](NC(=O)[C@@H](NC(=O)[C@@H](NC(=O)CNC(=O)[C@@H](N)CC(N)=O)C(C)C)CSSC[C@@H](C(N)=O)NC2=O)C(=O)NCC(=O)N[C@@H](Cc2ccc(O)cc2)C(=O)N[C@@H](CCCCN)C(=O)N[C@@H](CC(C)C)C(=O)N3)cc1` [compound 141], the IC50 was 2.45 µM.

The molecule `CC(C)C[C@@H]1NC(=O)[C@H](CCCCN)NC(=O)[C@H](Cc2ccc(O)cc2)NC(=O)CNC(=O)[C@@H]2CSSC[C@H](NC1=O)C(=O)N[C@@H](Cc1c[nH]cn1)C(=O)N1C[C@H](O)C[C@H]1C(=O)N[C@H](C(N)=O)CSSC[C@H](NC(=O)[C@H](C)NC(=O)CNC(=O)[C@@H](N)CC(N)=O)C(=O)N2` [compound 153] showed an IC50 of 3.72 µM.

Molecule `CCCC[C@H](NC(=O)CNC(=O)[C@@H](N)CC(N)=O)C(=O)N[C@H]1CSSC[C@@H](C(N)=O)NC(=O)[C@@H]2C[C@@H](O)CN2C(=O)[C@H](Cc2c[nH]cn2)NC(=O)[C@@H]2CSSC[C@H](NC1=O)C(=O)NCC(=O)N[C@@H](Cc1ccc(O)cc1)C(=O)N[C@@H](CCCCN)C(=O)N[C@@H](CC(C)C)C(=O)N2` [compound 112] showed a concentration for half-maximal inhibition (IC50) of 1.02 µM.

In turn, `CC(C)C[C@@H]1NC(=O)[C@H](CCCCN)NC(=O)[C@H](Cc2ccc(O)cc2)NC(=O)CNC(=O)[C@@H]2CSSC[C@H](NC1=O)C(=O)N[C@@H](Cc1c[nH]cn1)C(=O)N1CCC[C@H]1C(=O)N[C@H](C(N)=O)CSSC[C@H](NC(=O)[C@@H](NC(=O)CNC(=O)C[C@@H](N)CCCCN)C(C)C)C(=O)N2` [compound 93] gave an IC50 of 0.407 µM.

For `CC(=O)N[C@@H](CCCCN)CC(=O)NCC(=O)N[C@H](C(=O)N[C@H]1CSSC[C@@H](C(N)=O)NC(=O)[C@@H]2C[C@@H](O)CN2C(=O)[C@H](Cc2c[nH]cn2)NC(=O)[C@@H]2CSSC[C@H](NC1=O)C(=O)NCC(=O)N[C@@H](Cc1ccc(O)cc1)C(=O)N[C@@H](CCCCN)C(=O)N[C@@H](CC(C)C)C(=O)N2)C(C)C` [compound 114], the half-maximal inhibitory concentration (IC50) is 1.1 µM.

`CC(C)C[C@@H]1NC(=O)[C@H](CCCCN)NC(=O)[C@H](Cc2ccc(O)cc2)NC(=O)CNC(=O)[C@@H]2CSSC[C@H](NC1=O)C(=O)N[C@@H](CCCNC(=N)N)C(=O)N1C[C@H](O)C[C@H]1C(=O)N[C@H](C(N)=O)CSSC[C@H](NC(=O)[C@@H](NC(=O)CNC(=O)[C@H](CC(N)=O)NC(=O)[C@@H](N)Cc1ccc(O)cc1)C(C)C)C(=O)N2` [compound 68]: the half-inhibitory concentration (IC50) is 0.219 µM.

Molecule `CC(=O)N[C@@H](CC(N)=O)C(=O)NCC(=O)N[C@H](C(=O)N[C@H]1CSSC[C@@H](C(N)=O)NC(=O)[C@@H]2C[C@@H](O)CN2C(=O)[C@H](Cc2c[nH]cn2)NC(=O)[C@@H]2CSSC[C@H](NC1=O)C(=O)NCC(=O)N[C@@H](Cc1ccc(O)cc1)C(=O)N[C@@H](CCCCN)C(=O)N[C@@H](CC(C)C)C(=O)N2)C(C)C` [compound 143] had an IC50 of 2.57 µM.

Regarding `CC(C)C[C@@H]1NC(=O)[C@H](CCCNC(N)=O)NC(=O)[C@H](Cc2ccc(O)cc2)NC(=O)CNC(=O)[C@@H]2CSSC[C@H](NC1=O)C(=O)N[C@@H](Cc1c[nH]cn1)C(=O)N1C[C@H](O)C[C@H]1C(=O)N[C@H](C(N)=O)CSSC[C@H](NC(=O)[C@@H](NC(=O)CNC(=O)[C@@H]1CCC(=O)N1)C(C)C)C(=O)N2` [compound 189], the half-inhibitory concentration (IC50) is 95.5 µM.

Molecule `CC(C)C[C@@H]1NC(=O)[C@H](CCCCN)NC(=O)[C@H](Cc2ccc(O)cc2)NC(=O)CNC(=O)[C@@H]2CSSC[C@H](NC1=O)C(=O)N[C@@H](Cc1c[nH]cn1)C(=O)N1Cc3ccccc3C[C@H]1C(=O)N[C@H](C(N)=O)CSSC[C@H](NC(=O)[C@@H](NC(=O)CNC(=O)C[C@@H](N)CCCCN)C(C)C)C(=O)N2` [compound 111] had an IC50 of 0.977 µM.

Regarding `CCCC[C@H](NC(=O)CNC(=O)C[C@@H](N)CCCCN)C(=O)N[C@H]1CSSC[C@@H](C(N)=O)NC(=O)[C@@H]2C[C@@H](O)CN2C(=O)[C@H](Cc2c[nH]cn2)NC(=O)[C@@H]2CSSC[C@H](NC1=O)C(=O)NCC(=O)N[C@@H](Cc1ccc(O)cc1)C(=O)N[C@@H](CCCCN)C(=O)N[C@@H](CC(C)C)C(=O)N2` [compound 58], the IC50 was 0.174 µM.
